The source of these data is PubChem BioAssay AID1347076 (National Center for Advancing Translational Sciences (NCATS), 2019).

“And” between values parts separate entries of the source, which are not always exact repeats. Equal values may be shown once. The list shows a part of the results, in another mix than the full data. Some of these compounds have results that are not shown, active ones among them. Inconclusive results are not listed. The source made the active and inactive calls. Calls follow the shape of the dose curve; as a rule, active = well fitted cell-killing curve with a large enough effect; inconclusive = small, poorly fitted or top-dose-only effect, or effect the other way; inactive = flat fitted curve, though single readings scatter.
% is scaled to controls: 0 for no effect and ±100 for the full control effect.

A short description of this assay: qHTS assay for MDR1-selective chemotherapeutics: Primary screen using the drug-selected MDR subline cells KB-V1. Also: nearly all actives have a fitted effect of over 60% in size. As to conditions: KB-V1 MDR cells viability, CellTiter-Glo, 72 h; at 46.1 µM (top of the series). From the text:
A prime difficulty in effectively treating cancer is the development of cellular resistance to multiple structurally unrelated anticancer drugs, a phenomenon known as multidrug resistance (MDR). […] Numerous strategies to overcome P-gp-mediated MDR have been explored, including the design of drugs that evade recognition and efflux, and development of inhibitors to block efflux and restore drug accumulation. […] An alternative approach is to exploit resistance by identifying drugs that target MDR cells over the non-resistant parental cells from which they were selected. […] The development of MDR1-selective agents represents a new strategy for resolving multidrug resistance, as it remains a long-standing clinical challenge for cancer chemotherapy.
Our goal is to identify compounds that selectively kill P-gp-expressing MDR cells. We will identify MDR1-selective compounds by comparing toxicity of compounds in the screening library against parental, drug-naive (KB-3-1) adenocarcinoma cells as well as their drug-selected MDR sub-line (KB-V1). The differential toxicity of compounds against these two cell lines will be used to identify MDR1-selective compounds, whose cytotoxicity is potentiated, rather than diminished, by P-gp expression. This assay will be utilized to conduct a quantitative high-throughput screen (qHTS) in collaboration with the NIH Chemical Genomics Center to identify selective agents, and probe hits arising from the screen will be validated using secondary assays and characterized through a well-established follow-up research program. This screen was run against the entire NCGC library collection of about 400,000 compounds.
NIH Molecular Libraries Probe Production Network [MLPCN]
NIH Chemical Genomics Center [NCGC]
PI: Michael Gottesman, National Cancer Institute, NIH
Briefly, 5 microL of media containing either KB-V1 cells (columns 1-2, 4-48) are dispensed into Greiner white, treated solid-bottom 1536-well assay plates (media-only control is added to column 3). Compounds are then transferred via Kalypsys pin tool equipped with 1536-pin array (10 nL slotted pins, V&P Scientific, San Diego, CA). Following addition of compound, the plates are incubated at 37 degrees C for 72 hours. CellTiter-Glo (2.5 µL/well) is then added, and the plates are read in a ViewLux reader (Perkin-Elmer, clear luminescence filter, 1 second exposure, 1x binning) following a 10 minute incubation. All cells are dispensed in DMEM phenol-red free media containing 10% FBS.
Library plates were screened starting from the lowest and proceeding to the highest concentration. Vehicle-only plates, with DMSO being pin-transferred to columns 5-48, will be inserted uniformly at the beginning and the end of each library in order to monitor and record any shifts in the background, which can be affected by reagent dispensers or loss in enzyme activity over time. Screening data will be corrected, normalized, and concentration-effect relationships will be derived by using publicly-available NCGC, NCATS curve fitting algorithms (http://ncgc.nih.gov/pub/openhts).
Background: In qHTS, concentration-response curves come from the screen itself.
On to `CN(C)c1cccc(C(=O)NCC2(N(C)C)CCCCC2)c1`, for which the activity change, negative = cytotoxicity was inactive: 10.5%.

`O=C(OCCN1CCCC1)C(O)(c1ccccc1)c1ccccc1`: the activity change, negative = cytotoxicity is inactive: 5.64%.

With `CC(C)Oc1ccc(C(=O)NCC2(N(C)C)CCCCC2)cc1`, the activity change, negative = cytotoxicity was inactive: 7.34% and inactive: 12.4%.

As to `COc1ccc(Br)c(C(=O)NCC2(N3CCCCC3)CCCCC2)c1`, the activity change, negative = cytotoxicity was inactive: -2.37%.

On to `Cc1cccc(C(=O)NCC2(N(C)C)CCCCC2)c1`, for which the activity change, negative = cytotoxicity is inactive: 0%.

Consider `COc1cc(C(=O)NCC2(N(C)C)CCCCC2)cc(OC)c1OC`, for which the activity change, negative = cytotoxicity was inactive: -0.874%.

Regarding `C=C(C)C#CC(O)(C(=O)OC1CCN(C)CC1)c1ccccc1` (stereo unspecified), the activity change, negative = cytotoxicity is inactive: 0.227%.

In the case of `CC(C)COc1ccc(C(=O)NCC2(N(C)C)CCCCC2)cc1`, the activity change, negative = cytotoxicity is inactive: -21.1%.

Consider `O=C(OC1CN2CCC1CC2)C(CO)(c1ccccc1)c1ccccc1` (stereo unspecified), for which the activity change, negative = cytotoxicity is inactive: -3.33%.

In the case of `COc1cccc(C(=O)NCC2(N3CCOCC3)CCCCC2)c1`, the activity change, negative = cytotoxicity was inactive: -17.3%.

As for `O=C(NCC1(N2CCCCC2)CCCCC1)c1cccc(Cl)c1`, the activity change, negative = cytotoxicity was inactive: 2.86%.

On to `COc1ccc(C(=O)NCC2(N(C)C)CCCCC2)cc1Cl`, for which the activity change, negative = cytotoxicity was inactive: 24.5%.

With `COc1ccc(Cl)cc1C(=O)NCC1(N(C)C)CCCCC1`, the activity change, negative = cytotoxicity is inactive: -1.37%.

As to `COc1cccc(C(=O)NCC2(N3CCCCC3)CCCCC2)c1`, the activity change, negative = cytotoxicity was inactive: -2.56%.

`COc1cc(C(=O)NCC2(N(C)C)CCCCC2)c([N+](=O)[O-])cc1OC`: the activity change, negative = cytotoxicity was inactive: 27.9%.

`CN(C)C1(CNC(=O)c2ccc(Br)cc2)CCCCC1`: the activity change, negative = cytotoxicity is inactive: 0%.

For `O=C(CBr)c1ccc(Cl)cc1`, the activity change, negative = cytotoxicity is inactive: 13.6%.

With `CCOc1cccc(C(=O)NCC2(N(C)C)CCCCC2)c1`, the activity change, negative = cytotoxicity is inactive: -11.9%.

As to `COc1ccc(C(=O)NCC2(N(C)C)CCCCC2)cc1`, the activity change, negative = cytotoxicity is inactive: -1.22%.

With `O=C(NCC1(N2CCCCC2)CCCCC1)c1cc(F)c(F)cc1Cl`, the activity change, negative = cytotoxicity is inactive: -8.22%.

As to `C=CCN1CCN(CCOC(=O)C(O)(c2ccccc2)c2ccccc2)CC1`, the activity change, negative = cytotoxicity was inactive: -12.1%.

For `CN(C)C1CCCC1OC(=O)C(O)(c1ccccc1)c1ccccc1` (stereo unspecified), the activity change, negative = cytotoxicity was inactive: 3.21%.

`CN(C)c1ccc(C(=O)NCC2(N(C)C)CCCCC2)cc1`: the activity change, negative = cytotoxicity is inactive: 15.9%.

On to `CN(C)C1(CNC(=O)c2ccccc2[N+](=O)[O-])CCCCC1`, for which the activity change, negative = cytotoxicity is inactive: -4.24%.

On to `Cc1ccccc1C(=O)NCC1(N2CCCCC2)CCCCC1`, for which the activity change, negative = cytotoxicity is inactive: -6.81%.

Take `CN(C)C1(CNC(=O)c2ccccc2F)CCCCC1`: the activity change, negative = cytotoxicity is inactive: -3.86%.

Turning to `Cc1ccc(C(=O)NCC2(N3CCCCC3)CCCCC2)cc1`, the activity change, negative = cytotoxicity was inactive: -0.999%.

As for `CC(C)N1C(=O)CC2(CCN(CCOC(=O)C(O)(c3ccccc3)c3ccccc3)CC2)C1=O`, the activity change, negative = cytotoxicity is inactive: 4.7%.

Turning to `CCN(CC)CC(C)C(C)OC(=O)C(O)(c1ccccc1)c1ccccc1` (stereo unspecified), the activity change, negative = cytotoxicity was inactive: -3.1%.

For the compound `CN(C)C1(CNC(=O)c2cccc(Cl)c2)CCCCC1`, the activity change, negative = cytotoxicity is inactive: -13.9%.

As for `O=C(NCC1(N2CCCCC2)CCCCC1)c1cc([N+](=O)[O-])ccc1Cl`, the activity change, negative = cytotoxicity is inactive: -0.892%.
